PubChem BioAssay AID743019 (Broad Institute, 2013)
Only a part is listed here, and it is no random draw. The source made the active and inactive calls.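 How the source made its calls: active means rising signal whose fitted curve reaches the 0.54 level within the top valid dose, showing a melting point (actives reach about 13 µM in these data); inactive means the rest, including activity in the opposite direction.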

Assay: SYPRO orange dye artefact, no FGF22 present – biochemical, cherry-picked samples, RT-PCR instrument, artefact control for FGF22 binder project, dose response (AID 743019); further: value is where the raw curve crosses a fixed level and not half-maximal
Conditions: compound-only SYPRO orange thermal shift counter-screen, no protein; at 38 µM (top of the series)

Structure (SMILES)	outcome
Nc1ccc(CCCCOc2ccccc2)cc1	inactive
Cc1ccc(S(=O)(=O)N(CCCN)CCCc2c(C)nc(N)[nH]c2=O)cc1	inactive
